## Binding of CDR-mutated scFvs to a peptide of the spike HR2 region

Data: MIT Lincoln Laboratory AlphaSeq set, Li et al. 2023, doi:10.1038/s41467-023-39022-2, as distributed in FLAb.

All variants were tested on one target, the spike HR2 peptide PDVDLGDISGINAS (SARS-CoV-2).

Each scFv is VH, three GGGGS repeats, VL, as in the parent Ab-14, and differs from it in the CDRs of the light chain only.
VH: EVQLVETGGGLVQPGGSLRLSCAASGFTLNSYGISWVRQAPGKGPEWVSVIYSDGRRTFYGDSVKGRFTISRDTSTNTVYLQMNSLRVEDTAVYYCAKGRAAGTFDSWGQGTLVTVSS
VL: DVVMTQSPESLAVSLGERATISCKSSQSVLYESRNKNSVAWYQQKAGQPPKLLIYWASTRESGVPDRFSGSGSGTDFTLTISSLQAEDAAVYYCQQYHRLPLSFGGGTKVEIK

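The starting antibody came from a phage panning campaign against this peptide. This is the validation round: designs drawn from the data on random variants, tested in the same kind of assay. Their group label is 14L_Ctrl (Ctrl: baseline library sampled from a position-specific scoring matrix, with some repeated check sequences). The assay is AlphaSeq: two haploid yeast populations carry antibody and antigen on their surface. The frequency of each diploid, read from paired DNA barcodes, reflects how well the two displayed proteins bind. A regression on co-assayed BCL2-family reference pairs converts the normalised counts of each replicate to an apparent Kd. The assay was run in six technical replicates.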

Variants are written as CDR1, CDR2 and CDR3 of the light chain (limits as in the source). Parent: KSSQSVLYESRNKNSVA, WASTRES, QQYHRLPLS.
The read-out is the apparent dissociation constant on a log10 scale (nM): the lower, the stronger.
The mean shown is taken over the replicates in which the pair was detected.
"ND" means that the variant was in the library but no mating with the target was seen in that replicate; the authors take this as a sign of poor binding, and no number exists.

| CDR-L1 | CDR-L2 | CDR-L3 | log10 Kd, replicates | log10 Kd (nM), mean | empty controls |
|---|---|---|---|---|---|
| KSSQSVLYEGRNKNSVA | FASTREN | QNHHRLPLS | ND / ND / 2.17 / 1.75 / ND / ND | 1.96 | 2 of 18 (2.55) |
| KSSMSVLAESRNKNSVA | WASTRES | QQPHRLPLS | ND / ND / ND / ND / ND / ND | ND | 0 of 18 |
| KSDDSVLYEGRNKNSVA | WASTRES | QQYHRLPLS | 2.00 / 1.33 / 1.30 / 1.19 / 1.53 / 1.55 | 1.48 | 0 of 18 |
| KSSISVLYESRNKNSVA | WSSTRES | QQYHRLPLS | 1.74 / ND / 1.53 / ND / ND / ND | 1.64 | 0 of 18 |
| HSSQSVLYDSRNENSVA | WASTRES | QQYPRLPLS | ND / ND / ND / ND / ND / ND | ND | 1 of 18 (2.75) |
| KSSQSVLQESVNKNSVA | AASTRES | GQYHRLPLS | 1.54 / 0.50 / 1.31 / 1.02 / 1.76 / 1.93 | 1.34 | 1 of 18 (1.83) |
| KSSQSVVDESRNKNSVA | WASTRED | QQYHRLPLS | 0.74 / 1.07 / 1.07 / 0.41 / 0.79 / 1.49 | 0.93 | 1 of 18 (3.64) |
| KSSQSVLYETRNENSVA | WASTRES | AQYHRLPLS | 1.96 / ND / ND / ND / ND / 1.88 | 1.92 | 0 of 18 |
| KMSQSVLYEERNKNSVA | WASTRLI | QQYHRLPLS | 1.77 / 1.01 / 1.65 / 1.40 / 1.37 / 1.80 | 1.50 | 0 of 18 |
| KSSQTVLYESRRKNSVA | WASTRES | QQYHRLPLS | ND / ND / ND / ND / ND / ND | ND | 0 of 18 |
| KVSQSVLYEHRNKNSVA | WASTRES | QQYHRPPLH | ND / ND / 4.34 / ND / ND / ND | 4.34 | 0 of 18 |
| KVIQSVLYESRNKNSVA | MASTRES | QQYHRLPLS | 1.46 / 0.63 / 1.01 / 0.85 / 0.82 / 0.38 | 0.86 | 2 of 18 (2.15) |
| KSSQSVYYESENKNSVA | WASTRES | QQYHRLPWS | ND / ND / ND / ND / ND / ND | ND | 1 of 18 (2.94) |
| KISQSTLYESRGKNSVA | NASTRES | QQYHRLPLS | -0.14 / -0.29 / -0.32 / -0.31 / -0.43 / -0.40 | -0.32 | 0 of 18 |
| KSSQSVLYESEFHNSVA | NAVTRES | QQYHRLPTR | ND / 2.15 / ND / 2.48 / ND / 4.69 | 3.10 | 3 of 18 (2.87) |
| KSSQQVLYESRWKNSVA | SASTRES | QQYARLPLS | 0.62 / 0.69 / 0.72 / 0.55 / 0.87 / 0.78 | 0.70 | 1 of 18 (2.61) |
| KSSQAVLYEDRNGNSVA | WASTRES | QQYHRLYLH | ND / ND / ND / ND / ND / ND | ND | 0 of 18 |
| KWSISVLHESRNKNSVA | WASTRES | QQYHRMPLS | ND / ND / ND / ND / ND / ND | ND | 0 of 18 |
| KYSQSVLYEWRNKNSVA | EASTRES | QQYHRLPLS | -0.01 / -0.14 / -0.06 / -0.14 / -0.26 / 0.09 | -0.09 | 1 of 18 (2.60) |
| KSSQSVLYESRNKFSVA | WASTRIS | FQYHRLPLS | ND / ND / ND / ND / ND / ND | ND | 0 of 18 |
| KASQSVLYESRNKNGVA | GANTRES | QQLHRLPLS | 1.18 / 0.85 / 0.42 / 0.69 / -0.01 / 0.64 | 0.63 | 0 of 18 |
| KQVTSVLYESRNKNSVA | WASVRES | QQYHRFPLS | ND / ND / ND / 2.53 / 2.68 / ND | 2.60 | 0 of 18 |
| KLSQSVLYESENKNSVA | QASTRES | QQYHRLPLS | 0.05 / -0.61 / -0.37 / -0.46 / -0.67 / -0.14 | -0.37 | 0 of 18 |
| KSSQSVLFETRNSNSVA | WASTRES | QQYHRLPLS | ND / 2.34 / 2.16 / 2.23 / 1.28 / 1.39 | 1.88 | 3 of 18 (2.36) |
| KSSQSYLYESTNKNSVA | WASTRES | QQYHRLPLS | ND / ND / ND / 1.53 / 1.87 / ND | 1.70 | 1 of 18 (1.41) |
| KSSQSHLYESRNHNSVA | DASTRES | QQYHRLPLP | 0.70 / 0.65 / 0.37 / 0.58 / 0.76 / 0.73 | 0.63 | 0 of 18 |
| KFSQSVLYESVNKNSVA | WASTRES | QQYHRHPLS | ND / ND / ND / ND / ND / ND | ND | 0 of 18 |
| RSSQSVLGESRYKNSVA | KASTRES | QQYHRLLLS | ND / ND / ND / ND / ND / ND | ND | 0 of 18 |
| KSDQAVLYESGNKNSVA | WASTRES | QQYQRLSLS | ND / 2.18 / ND / ND / -0.19 / ND | 1.00 | 0 of 18 |
| KSSQSCLYESRNKNSVA | WASTRES | QQYHRLPLS | 2.12 / 3.07 / 1.93 / ND / ND / 2.30 | 2.35 | 2 of 18 (2.00) |
| KSSQSALYESFNKNSVA | WASTRES | QQYHYLPLS | ND / ND / ND / ND / ND / ND | ND | 1 of 18 (1.86) |

The first 3 variants above that were never detected:

| CDR-L1 | CDR-L2 | CDR-L3 | log10 Kd, replicates | log10 Kd (nM), mean | empty controls |
|---|---|---|---|---|---|
| KSSMSVLAESRNKNSVA | WASTRES | QQPHRLPLS | ND / ND / ND / ND / ND / ND | ND | 0 of 18 |
| HSSQSVLYDSRNENSVA | WASTRES | QQYPRLPLS | ND / ND / ND / ND / ND / ND | ND | 1 of 18 (2.75) |
| KSSQTVLYESRRKNSVA | WASTRES | QQYHRLPLS | ND / ND / ND / ND / ND / ND | ND | 0 of 18 |

Background: pairings of all light chain designs with three empty control strains gave a value in 4% of cases (median 2.64, 5th percentile 1.59). Values in that range, when seen in few replicates, are hard to tell from nonspecific mating. The control count says in how many pairings with the empty strains this scFv gave a signal, with their mean in brackets.
The range of this assay differs from that of the first round, and the authors advise against merging the two.
The authors' rule: three or more of the six replicates give a measured affinity, fewer mean a poor binder.